Values of other authors in patent US7678819B2.

Amino acid sequences for entries named in this document (tags omitted). Residues count along the entry.
UniProt P05067, 672-711 limits assumed: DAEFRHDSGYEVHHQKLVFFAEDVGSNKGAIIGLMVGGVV
UniProt P05067, 672-713 limits assumed: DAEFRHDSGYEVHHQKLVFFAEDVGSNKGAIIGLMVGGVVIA

Molecular target: AD cortical homogenates (Homo sapiens, UniProt P05067)
Conditions: tested as the radiolabelled form

CNc1ccc(/C=C/c2ccc(O)cc2)cc1
binding capacity: 14-45 pmol/mg protein
